Experimental data taken from patent US9359487B2, “Plasticizers based on mixed esters of succinate” (Proviron Holding N.V., priority 2012, dated 2016).

Assays:
[1] = dry blend compound, not shown in Table 3
[2] = Weight loss test (volatility) of transparent plastisole PVC film at 100° C.; type: physicochemical
Method: Their plasticising behaviour is compared in a plastisole based transparent PVC film.
(flooring type, top layer): Solvin 382NG 100 phr (obtainable from Solvay S.A., Belgium), plasticiser 50 phr, Ca/Zn stabiliser (Baerostab NT 306) 2.5 phr (obtainable from the company Baerlocher).
The transparent film so formed is subjected to amongst others a weight loss test (volatility) at 100° C. for respectively 4 and 7 days. The plasticiser efficiency is determined by means of a hardness measurement. A measure for the compatibility of the plasticiser is the transparency.

[3] = Volatility of pure plasticiser by thermal-gravimetrical analysis; type: physicochemical; details: 200° C./10 min, pure compound
[4] = plastisol, 50 phr plasticizer; for Extractions by H2O (Weight Difference %) 1 d: after 1 day; for Extractions by H2O (Weight Difference %) 7 d: after 7 days; for Extractions by H2O (Weight Difference %) dry: after drying the sample
[5] = transparent PVC film, 50 phr plasticiser, 4 days

Row | Compound | extraction of the pure plasticisers by means of water [1] | Volatile: Weight difference @ 100° C. After 4 days (%) [2, 5] | Volatile: Weight difference @ 100° C. After 7 days (%) ([2]; transparent PVC film, 50 phr plasticiser, 7 days) | delta vs. ref. (weight difference after 4 days) ([2]; versus DINP, 4 days) | delta vs. ref. (weight difference after 7 days) ([2]; versus DINP, 7 days) | Volatily plasticizer (weightloss [m %]) [3] | Extractions by H2O (Weight Difference %) 1 d [4] | Extractions by H2O (Weight Difference %) 7 d [4] | Extractions by H2O (Weight Difference %) dry [4]
1 | Benzyl-(2-propylheptyl) succinate [BPHS] | very good and better than the reference DINP, DOTP and DOA | −10.80% | −17.40% | ×4.7 | ×4.35 | −12.9 m % | 1% | 1.8% | 0.2%
2 | CC(C)CCCCCCOC(=O)CCC(=O)OCCCCCCC(C)C [DINS, diisononylsuccinate] |  | −17.40% |  |  |  |  |  |  | 
3 | Benzyl-isononyl succinate [BINS] | very good and better than the reference DINP, DOTP and DOA |  |  |  |  | −15.1 m % | 0.8% | 1.5% | 0.1%
